Where two headings read alike, the source gives them in different places.
How the values were obtained:
[1] = molecular target: T1, matriptase (Homo sapiens, UniProt Q9Y5Y6); conditions: as published before, cited from earlier work
[2] = molecular target: T1, matriptase; assay: Matriptase enzyme inhibition assay with chromogenic substrate Boc-QAR-pNA; type: biochemical

Sequences of proteins named here, by UniProt entry; tags and fusion partners are left off. Residues count along the entry.
UniProt Q9Y5Y6, 615-855 limits assumed: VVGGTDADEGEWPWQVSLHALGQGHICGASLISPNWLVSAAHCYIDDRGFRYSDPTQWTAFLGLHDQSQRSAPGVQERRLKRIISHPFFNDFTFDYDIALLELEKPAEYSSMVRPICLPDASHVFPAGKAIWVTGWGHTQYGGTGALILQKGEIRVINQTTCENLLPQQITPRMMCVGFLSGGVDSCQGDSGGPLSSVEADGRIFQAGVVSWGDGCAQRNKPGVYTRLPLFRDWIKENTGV

In the case of `CC[C@H](C)[C@@H]1NC(=O)[C@@H]2CCCN2C(=O)[C@@H]2CCCN2C(=O)[C@H]([C@@H](C)CC)NC(=O)[C@H](CO)NC(=O)[C@H](CCCCN)NC(=O)[C@H]([C@@H](C)O)NC(=O)[C@@H](NC(=O)[C@H](CCCNC(=N)N)NC(=O)CN)CSSC[C@@H](C(=O)N[C@@H](Cc2ccccc2)C(=O)N2CCC[C@H]2C(=O)N[C@@H](CC(=O)O)C(=O)O)NC1=O`, the Ki ([1]; matriptase, pH 7.6 (Table 1)) is given as 0.703 µM, the Ki ([1]; read-out: Matriptase Ki, pH 7.6 (Table 2)) is given as 0.703 µM and the “ΔBG(x) − ΔBG(SFTI-1[1, 14])” value ([2]; difference in free energy of binding/dissociation, ΔBG = −RTlnKi, pH 7.6 (Table 1)) is given as 0 kJ/mol. The “ΔBG(x)-ΔBG(SFTI-1[1,14])” value ([2]; pH 7.6 (Table 2)) was 0 kJ/mol.
